The results in this text go back to PubChem BioAssay AID1645858 (Buhrlage Lab, Dana-Farber Cancer Institute and Novartis …, 2021).

By UniProt entry, the sequences of proteins in these tests, tags left out.
UniProt Q5T2D3, whole entry, looked up: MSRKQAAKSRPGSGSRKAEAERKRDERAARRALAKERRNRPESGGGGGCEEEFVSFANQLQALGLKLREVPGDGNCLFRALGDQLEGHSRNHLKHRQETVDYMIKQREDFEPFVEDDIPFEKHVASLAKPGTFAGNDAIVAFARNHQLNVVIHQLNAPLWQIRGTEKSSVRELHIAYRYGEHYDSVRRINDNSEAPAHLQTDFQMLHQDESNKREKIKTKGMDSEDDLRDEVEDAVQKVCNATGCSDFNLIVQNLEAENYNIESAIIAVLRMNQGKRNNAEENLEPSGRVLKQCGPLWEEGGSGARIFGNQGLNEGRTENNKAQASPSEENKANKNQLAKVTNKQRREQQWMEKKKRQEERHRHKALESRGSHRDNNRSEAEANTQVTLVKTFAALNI

Molecules are shown by their SMILES. The entries are a selection whose mix differs from that of the whole data set. Calls of active or inactive are those of the source. No stated cut-off is given here; in the data, active means inhibition above about 30%; inactive means the rest.

The target of the assay is OTU domain-containing protein 3 (Homo sapiens) (UniProt Q5T2D3). The experiment in a line: inhibitors of human OTUD3 deubiquitinase (AID 1645858). The note with it: purified OTUD3, Ub-rhodamine fluorescence, 2 h; at 25 µM; active compounds read high.
One may read the inhibition as the change of the read-out against control, counted positive when it falls. On to `Cc1[nH]c2c(N(C(=O)Nc3ccccc3)C3CCN(Cc4ccccc4)CC3)cccc2c1C`, for which the inhibition is inactive: -5.85%. In the case of `N#Cc1cccc(C(=O)N(Cc2ccco2)C2CCN(CCc3ccc(Cl)cc3)CC2)c1`, the inhibition is inactive: -21.7%.

For `O=C(c1ccc2c(c1)OCO2)N(Cc1ccco1)C1CCN(CCc2ccccn2)CC1`, the inhibition was inactive: -17.4%. Turning to `O=C(COC(=O)C(O)(c1ccccc1)c1ccccc1)NCc1ccc2c(c1)OCO2`, the inhibition is inactive: -10.4%. Regarding `COc1ccc(CCN2CCC(N(Cc3cccnc3)C(=O)c3cccc(C#N)c3)CC2)cc1`, the inhibition was inactive: -18.4%.

Consider `CS(=O)(=O)c1ccc(C(=O)N(Cc2ccco2)C2CCN(CCc3ccccn3)CC2)cc1`, for which the inhibition was inactive: -18.6%. For the molecule `N#Cc1cccc(C(=O)N(Cc2cccnc2)C2CCN(CCc3ccccn3)CC2)c1`, the inhibition was inactive: -16.2%. To `COc1ccc(CCN2CCC(N(Cc3ccco3)C(=O)c3ccc(S(C)(=O)=O)cc3)CC2)cc1` belongs inactive: -23.6%; to `CN1C(=O)C2C(NC(=NCc3ccco3)N2CCc2ccccc2)N(C)C1=O` (stereo unspecified), inactive: -9.45%.

For `N#Cc1cccc(C(=O)N(Cc2ccco2)C2CCN(CCc3ccccn3)CC2)c1`, the inhibition is inactive: 11.5%. For `CS(=O)(=O)c1ccc(C(=O)N(Cc2cccnc2)C2CCN(CCc3ccc(Cl)cc3)CC2)cc1`, the inhibition was inactive: -53.6%.
